Among the data in patent publication US20250059267A1, “COMBINATION THERAPY FOR TREATMENT OF TUMORS COMPRISING CANCER-ASSOCIATED FIBROBLASTS” (PHENOMIC AI, priority 2021, published 2025) are CD248 expression and PDPN expression values, retold here.

This test relates to CCD-18Co normal colon fibroblasts. Put plainly: Cytokine stimulation of fibroblast monocultures, CAF marker immunofluorescence. The test is classed as cell-based, human. The settings on record: fibroblast monoculture, stimulated 48 hours. As to the method:
FIG. 1 Fibroblast-cancer co-cultures lead to a greater increase in CAF activation markers than treatment with a single cytokine alone, indicating a cocktail of factors are needed to induce more disease relevant CAFs. CCD-18Co normal colon fibroblasts were either cultured in minimal media (Untreated), with the addition of a cytokine (TGF-β 1.2 ng/mL, TNF-α 1 ng/mL, PDGFbb 4 ng/mL, or aFGF 2 ng/mL), or co-cultured in minimal media with HCT116 or HT-29 colon cancer cells. A panel of 5 CAF markers were then used to stain the cultures and the expression levels of expression of the markers calculated from individual segmented fibroblasts.
First, we treated normal human fibroblasts with a panel of cytokines to induce activation, and then assessed CAF marker expression by immunofluorescence. Fibroblast monocultures were serum-starved for 24 hours then stimulated with TGF-β, TNF alpha, PDGFbb, acidic FGF or other cytokines for 48 hours. Cells were then fixed, permeabilized and stained with a panel of immunofluorescent CAF markers and imaged by high-content microscopy. […] Incubation with TNFα increased PDPN expression, but not CD248 expression, consistent with the idea that PDPN and CD248 mark different fibroblast states.

Consider “TNFα: cytokine used to stimulate fibroblasts”, for which the CD248 expression entry is on record as “not” and the PDPN expression entry is given as “increased”.
